Literature values as cited in patent US20250073235A1, “INHIBITION OF MAST CELL TUMOR NECROSIS FACTOR FOR THERAPEUTIC USE” (The University of Southern Mississippi, priority 2023, published 2025).

Amino acid sequences for entries named in this document (tags omitted).
UniProt P53779, whole entry, species assumed: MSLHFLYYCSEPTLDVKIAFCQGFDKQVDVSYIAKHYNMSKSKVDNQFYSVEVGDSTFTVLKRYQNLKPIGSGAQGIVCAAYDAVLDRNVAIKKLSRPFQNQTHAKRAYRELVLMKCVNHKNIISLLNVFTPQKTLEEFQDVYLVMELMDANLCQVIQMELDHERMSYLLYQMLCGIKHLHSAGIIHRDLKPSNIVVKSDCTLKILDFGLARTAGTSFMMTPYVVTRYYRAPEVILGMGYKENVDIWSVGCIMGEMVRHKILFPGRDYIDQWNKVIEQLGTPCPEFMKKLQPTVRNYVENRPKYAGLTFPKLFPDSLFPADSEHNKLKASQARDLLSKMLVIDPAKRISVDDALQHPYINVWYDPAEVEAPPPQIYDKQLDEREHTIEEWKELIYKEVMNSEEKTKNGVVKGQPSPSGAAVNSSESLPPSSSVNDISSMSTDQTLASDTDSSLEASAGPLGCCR
UniProt P45983, whole entry, species assumed: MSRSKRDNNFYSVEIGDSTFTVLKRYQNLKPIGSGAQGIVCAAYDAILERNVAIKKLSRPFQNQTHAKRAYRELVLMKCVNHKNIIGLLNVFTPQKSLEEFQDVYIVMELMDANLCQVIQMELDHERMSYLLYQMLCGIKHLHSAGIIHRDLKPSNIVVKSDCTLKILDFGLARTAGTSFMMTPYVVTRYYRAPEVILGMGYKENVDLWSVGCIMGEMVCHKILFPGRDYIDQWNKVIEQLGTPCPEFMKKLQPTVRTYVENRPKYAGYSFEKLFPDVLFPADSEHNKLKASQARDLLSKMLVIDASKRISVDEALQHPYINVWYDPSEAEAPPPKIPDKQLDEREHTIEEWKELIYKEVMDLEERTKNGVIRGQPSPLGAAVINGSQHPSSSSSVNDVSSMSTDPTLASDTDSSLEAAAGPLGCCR

Tests used:
JNK3 = JNK3 (Homo sapiens, UniProt P53779); settings: cited from earlier work
JNK1 = JNK1 (Homo sapiens, UniProt P45983); settings: cited from earlier work

## Cc1cc(NC(=O)c2cccc(NC(=O)/C=C/CN(C)C)c2)ccc1Nc1nccc(-c2cccnc2)n1 [JNK-IN-8]
JNK3
  IC50: 1 nM
JNK1
  IC50: 4.7 nM
